# From patent US20210246224A1 (Regeneron, published 2021)
# Protein sequences, listed by entry. Tags and fused reporters are not part of them. Chains listed by the source or under a name are the forms on record and can include a tag or linker.
# UniProt Q06481, other isoform, or with tags, fused parts or gaps: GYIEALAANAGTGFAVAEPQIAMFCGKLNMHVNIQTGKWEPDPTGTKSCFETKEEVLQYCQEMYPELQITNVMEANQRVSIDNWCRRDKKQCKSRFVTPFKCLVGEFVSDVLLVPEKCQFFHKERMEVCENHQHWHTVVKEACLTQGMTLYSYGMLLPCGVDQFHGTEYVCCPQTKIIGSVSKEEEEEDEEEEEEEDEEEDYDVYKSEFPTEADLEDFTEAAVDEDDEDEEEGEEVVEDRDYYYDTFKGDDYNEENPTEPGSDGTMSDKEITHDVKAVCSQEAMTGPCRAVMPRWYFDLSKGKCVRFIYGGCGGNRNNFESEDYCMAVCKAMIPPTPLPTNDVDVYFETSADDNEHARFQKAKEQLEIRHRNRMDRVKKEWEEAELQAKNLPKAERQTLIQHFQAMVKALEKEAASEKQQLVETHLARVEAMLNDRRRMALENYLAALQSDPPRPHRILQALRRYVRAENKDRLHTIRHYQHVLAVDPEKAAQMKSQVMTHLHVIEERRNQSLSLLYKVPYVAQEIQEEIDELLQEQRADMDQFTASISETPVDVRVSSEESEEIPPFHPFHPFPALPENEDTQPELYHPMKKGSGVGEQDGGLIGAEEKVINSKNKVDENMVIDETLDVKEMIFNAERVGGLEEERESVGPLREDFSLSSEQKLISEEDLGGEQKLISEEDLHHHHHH
# What was measured:
# [1] = target: T1, human HER2 extracellular domain expressed with a C-terminal myc-myc-hexahistidine tag (human, UniProt P04626 23-652); experiment: SPR (Biacore 4000), antibody captured on anti-human Fc, hHER2-MMH injected, 37 C
# T1 construct: also called hHER2-MMH; HER2.mmh
# Protocol: (§1) Equilibrium dissociation constants (KD values) for HER2 and APLP2 binding to purified anti-HER2xAPLP2 bispecific and parental antibodies were determined using a real-time surface plasmon resonance biosensor using a Biacore 4000 instrument. The Biacore sensor surface was first derivatized by amine coupling with a monoclonal mouse anti-human Fc antibody (GE, Cat #BR-1008-39) to capture anti-HER2xAPLP2 bispecific monoclonal antibodies. […] Kinetic association rate constant (ka) and dissociation rate constant (kd) were determined by fitting the real-time sensorgrams to a 1:1 binding model using Scrubber 2.0c curve fitting software. Binding dissociation equilibrium constants (KD) and dissociative half-lives (t1/2) were calculated from the kinetic rate constants as: […]
# [2] = target: T2, human APLP2 extracellular domain expressed with a C-terminal myc-myc-hexahistidine tag (human, UniProt Q06481 32-692); experiment: SPR (Biacore 4000), antibody captured on anti-human Fc, hAPLP2-MMH injected, 37 C
# T2 construct: also called hAPLP2-MMH; APLP2.mmh
# Protocol: as §1
# [3] = target: T2, human APLP2 extracellular domain …; experiment: SPR, antibody captured, hAPLP2-MMH injected, 25 C
# [4] = target: T3, human HER2 expressed on cells (cancer cell lines and normal primary cultures) (human, UniProt P04626 23-1255); experiment: imaging, Alexa647-labelled antibody on MDA-MB-361 cells at 4 C; competitors hHER2-MMH + hAPLP2-MMH
# T3 construct: Endogenous HER2 of the cell lines; the same cells also express APLP2; also called human epidermal growth factor receptor 2
# Protocol: (§2) For the assay, cells were plated on collagen-coated, black wall, 96-well, optical plates (Greiner, Cat #655936) at 2.5×10⁵ cells per well in their appropriate culture media (described in previous examples), and incubated overnight at 37° C. in 5% CO₂. The next day, the cells were placed in refrigeration at 4° C. for 30 minutes. […] To each antibody solution, either PBS alone, human HER2 extracellular domain expressed with a C-terminal myc-myc-hexahistidine tag (hHER2-MMH; SEQ ID NO: 53) alone, human APLP2 extracellular domain expressed with a C-terminal myc-myc-hexahistidine tag (hAPLP2-MMH; SEQ ID NO: 54) alone, or the combination of hHER2-MMH and hAPLP2-MMH was added at a concentration of […]. After incubation, and removal of culture media, 50 μL/well of the bispecific antibody and soluble protein solutions were added to the cells for 30 minutes at 4° C. The cells were subsequently washed with 150 μL/well of DMEM containing 10% FBS at 4° C. for 10 minutes. […] The fixing buffer was then removed, 100 uL of DPBS/CM was added and allowed to incubate for approximately 20 minutes at room temperature prior to image acquisition. Binding of the bispecific antibodies to each of the cell types was measured using an Image Xpress^Micro automatic microscope (Molecular Devices). Data acquired was analyzed using MetaXpress software (Molecular Devices). […]
# [5] = target: T3, human HER2 expressed on cells (cancer …); experiment: imaging, Alexa647-labelled antibody on MDA-MB-361 cells at 4 C; No Block
# Protocol: as §2
# [6] = target: T2, human APLP2 extracellular domain …; experiment: SPR, antibody captured, hAPLP2-MMH injected, 25 C (second row for this antibody)
# [7] = target: T3, human HER2 expressed on cells (cancer …); experiment: imaging, Alexa647-labelled antibody on MDA-MB-361 cells at 4 C; competitor hHER2-MMH
# Protocol: as §2
# [8] = target: T3, human HER2 expressed on cells (cancer …); experiment: imaging, Alexa647-labelled antibody on MDA-MB-361 cells at 4 C; competitor hAPLP2-MMH
# Protocol: as §2
Binder,koff [1],kon [1],koff [2],kon [2],koff [3],kon [3],t½ [1],Bispecific antibody signal (Fold over blank) [4],Bispecific antibody signal (Fold over blank) [5],koff [6],kon [6],Bispecific antibody signal (Fold over blank) [7],Bispecific antibody signal (Fold over blank) [8],Kd [1]
"H4H25014D (bispecific antibody, IgG4, V domains shown, Wild-type kappa CL and a modified (chimeric) IgG4 CH domain as set forth in US20140243504A1; also called bispecific anti-HER2xAPLP2 antibody) VH 1: QVQLQESGPGLVKPSQTLSLTCTVSGGSISSGHYFWSWIRQHPGKGLEWIGYIFYSGSTHYNPSLKSRLSISVDTSKNQFSLRLTSVTAADTAVYYCAREEGDYNFWDVDYVPGHFDYWGQGTLVTVSS VH 2: EVQLVESGGGLVQPGGSLRLSCAASGFTFSTYVMSWVRQAPGKGPEWVSGISGRTGTTYYADSVKGRFTISRDNSKNTLYLQMNSLRAEDTAVYYCASRITAAGRGYYYYYGMDVWGRGTTVTVSS VL: not shown",0.000731 s⁻¹,217000 M⁻¹ s⁻¹,0.0104 s⁻¹,44400 M⁻¹ s⁻¹,0.000946 s⁻¹,94800 M⁻¹ s⁻¹,,,,,,,,
"H4H25018D (bispecific antibody, IgG4, V domains shown, Wild-type kappa CL and a modified (chimeric) IgG4 CH domain as set forth in US20140243504A1; also called bispecific anti-HER2xAPLP2 antibody) VH 1: QVQLQESGPGLVKPSQTLSLTCTVSGGSISSGHYFWSWIRQHPGKGLEWIGYIFYSGSTHYNPSLKSRLSISVDTSKNQFSLRLTSVTAADTAVYYCAREEGDYNFWDVDYVPGHFDYWGQGTLVTVSS VH 2: EVQLVESGGGLVQPGRSLRLSCVASGFTFADYAMHWVRQAPGKGLEWVSGISWNSGNIDYADSVKGRFTISRDNAKNSLYLQMNSLRTEDTALYYCAKVRIVVAGYYYYYYGMDVWGQGTTVTVSS VL: not shown",0.000895 s⁻¹,213000 M⁻¹ s⁻¹,0.00941 s⁻¹,65000 M⁻¹ s⁻¹,0.00171 s⁻¹,110000 M⁻¹ s⁻¹,13 min,5 fold over blank,14 fold over blank,0.0015 s⁻¹,90300 M⁻¹ s⁻¹,5 fold over blank,14 fold over blank,
"H4H25020D (bispecific antibody, IgG4, V domains shown, Wild-type kappa CL and a modified (chimeric) IgG4 CH domain as set forth in US20140243504A1; also called bispecific anti-HER2xAPLP2 antibody) VH 1: QVQLQESGPGLVKPSQTLSLTCTVSGGSISSGHYFWSWIRQHPGKGLEWIGYIFYSGSTHYNPSLKSRLSISVDTSKNQFSLRLTSVTAADTAVYYCAREEGDYNFWDVDYVPGHFDYWGQGTLVTVSS VH 2: QVQLVQSGVEVKKPGASVKVSCKASGYTFTDYGISWVRQAPGQGLEWMGWISAHNGNTNYAQKLQGRVTMTTDTSTNTAYMELRSLRSDDTAVYYCARRNWKYFDYWGQGTLVTVSS VL: not shown",0.000919 s⁻¹,219000 M⁻¹ s⁻¹,0.336 s⁻¹,398000 M⁻¹ s⁻¹,,,13 min,7 fold over blank,15 fold over blank,,,6 fold over blank,16 fold over blank,
"H4H25019D (bispecific antibody, IgG4, V domains shown, Wild-type kappa CL and a modified (chimeric) IgG4 CH domain as set forth in US20140243504A1; also called bispecific anti-HER2xAPLP2 antibody) VH 1: QVQLVQSGPEVKKPGASVKVSCKASGYTFPNFGISWVRQAPGQGLEWMGWIAPYNVATNYAPKLQGRVTMTTDTSTSTAYMELRSLRSDDTAVYYCARWGAGYMGYYYYGMDVWGQGTTVTVSS VH 2: EVQLVESGGGLVQPGRSLRLSCVASGFTFADYAMHWVRQAPGKGLEWVSGISWNSGNIDYADSVKGRFTISRDNAKNSLYLQMNSLRTEDTALYYCAKVRIVVAGYYYYYYGMDVWGQGTTVTVSS VL: not shown",,,,,,,,,,,,,,5.15 nM
"H4H25021D (bispecific antibody, IgG4, V domains shown, Wild-type kappa CL and a modified (chimeric) IgG4 CH domain as set forth in US20140243504A1; also called bispecific anti-HER2xAPLP2 antibody) VH 1: QVQLVQSGPEVKKPGASVKVSCKASGYTFPNFGISWVRQAPGQGLEWMGWIAPYNVATNYAPKLQGRVTMTTDTSTSTAYMELRSLRSDDTAVYYCARWGAGYMGYYYYGMDVWGQGTTVTVSS VH 2: QVQLVQSGVEVKKPGASVKVSCKASGYTFTDYGISWVRQAPGQGLEWMGWISAHNGNTNYAQKLQGRVTMTTDTSTNTAYMELRSLRSDDTAVYYCARRNWKYFDYWGQGTLVTVSS VL: not shown",,,0.28 s⁻¹,287000 M⁻¹ s⁻¹,,,,,,,,,,
